Assay outcomes from PubChem.
miR-21 reporter: miR-21 reporter, rising signal | AID 2288 | HeLa miR-21 FLuc reporter, luciferase, 48 h | 340,000 tested, under 10 active | Potency, µM (doses to about 38.3 µM); active = well fitted rising curve with a large enough effect; inconclusive = small, poorly fitted or top-dose-only effect; inactive = no such curve, though single readings can be large or run the other way;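 note: miR-21 action dims this reporter so a rising signal means less miR-21 action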
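HeLa cells endogenously expressing miR-21, stably carrying CMV-driven firefly luciferase with a downstream miR-21 binding site, 2000 cells/well. Titrations up to approximately 40 uM, 48 hours; luciferase luminescence read.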
A549 tox-1: A549 cytotoxicity, counter-screen for Nrf2 inhibitors; A549 ARE-Fluc cells, CellTiter-Fluor viability, 18-24 h; Potency, µM (titrated, usually from 46 µM), most hits filed as inhibitors; 0.16% of 390,000 active; AID 504648
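A549 ARE-Fluc cells in 5% FBS OPTI-MEM, 5000 cells/well, rested 2 h then exposed to compounds in concentration-response for 18-24 h at 37 °C. Viability by CellTiter-Fluor fluorescence (Ex 405/Em 525) after 30 min; luciferase luminescence (BugLite, 15 min, RT) read afterwards.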
Nrf2 block: blocks Nrf2 signaling | A549 ARE-Fluc reporter, luciferase luminescence, 18-24 h | Potency, µM (doses to about 46 µM), hits mostly inhibitors | 2.1% of 360,000 active | AID 504444; further: nearly all actives have a fitted effect of over 60% in size
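Two sequential reads on A549 ARE_Fluc cells exposed to compound for 18-24 h: a CellTiter-Fluor fluorescence read for viability, then a luciferase luminescence read for Nrf2/ARE activity.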
p53 reactivation: re-activators of mutant p53; 0.063% of 320,000 active; AID 504706; H1299 p53-A138V BP100-luciferase reporter, luminescence, 24 h; Potency, µM (highest dose often 92.2 µM), most hits filed as activators; further: nearly all actives have a fitted effect of over 45% in size
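H1299 (p53-null), stable ts p53-A138V + BP100-Luc; 1000 cells/well, Opti-MEM/10% FBS; cpd 4 pt, 1:5; 24 h, 37 deg C, 5% CO2; detection reagent 10 min RT; luminescence.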
Nrf2 ARE act: activates Nrf2 signaling; Potency, µM (highest dose often 46.1 µM), actives largely listed as activators; AID 624171; 0.31% of 410,000 active; AREc32 ARE-luciferase reporter (MCF7-derived line), luminescence, 24 h; further: nearly all actives have a fitted effect of over 65% in size
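ARE activation measured as luciferase luminescence (Steady-Glo, 30 min RT) in AREc32_Fluc cells after 24 hr compound exposure at 37 deg C, 5% CO2; cells seeded overnight at 1000/well in OPTI-MEM, 5% FBS.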
ClpP mod: qHTS Assay for Activators of ClpP. ATP-dependent Clp protease proteolytic subunit (Bacillus subtilis (strain 168)), P80244. purified B. subtilis ClpP, FRET peptide cleavage, 20 min. Potency, µM (doses to about 57.5 µM). 1.9% of 340,000 active. AID 651965, 2013; active means well fitted falling curve with a large enough effect; inconclusive means small, poorly fitted or top-dose-only effect; inactive means no such curve, though single readings can be large or run the other way; further: the source files actives as falling curves though it sought activators and does not explain the sign; nearly all actives have a fitted effect of over 65% in size
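ClpP 10 microg/mL final, pH 8 Tris/KCl buffer with BSA, glycerol, Tween-20; compound pinned in; FRET-FV substrate; RT 20 min; Ex320/Em430; ΔFRET vs ADEP 5.8 microM, DMSO, no enzyme.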
FLuc counter 3: blocks purified firefly luciferase in Nrf2 counterscreen | AID 720522 | shares compounds with Nrf2 block | purified firefly luciferase, luminescence inhibition | 4% of 1,400 active | Potency, µM (doses to about 57.5 µM), hits mostly inhibitors; further: nearly all actives have a fitted effect of over 65% in size
A549 tox-2: toxic to A549 ARE-Fluc cells in Nrf2 counterscreen | shares compounds with Nrf2 block | Potency, µM (top dose mostly 46.1 µM), usual class: inhibitors | A549 ARE-Fluc cells, cytotoxicity counterscreen | 2% of 1,400 active;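 further: cells exposed to compounds for 18 to 24 hours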
Nrf2 ARE inh: reduces Nrf2 ARE reporter signal in A549 cells; A549 ARE-firefly luciferase reporter, luminescence; 74% of 1,400 active; shares compounds with Nrf2 block; Potency, µM (series often up to 46.1 µM), actives largely listed as inhibitors; further: nearly all actives have a fitted effect of over 65% in size
A number is an active result; i = inactive; ? = inconclusive; nt = not tested or not shown. Only some compounds are listed: those with a hit (about 3.7% of all), similar ones and a draw of the others. Unless noted, the call rests on the fitted dose curve; in most records, active means well fitted curve in the direction sought with a large enough effect; inconclusive means small, poorly fitted or top-dose-only effect, or another doubt; inactive means no such curve, though single readings can be large; an effect the other way counts as inactive or inconclusive.

SMILES	miR-21 reporter	A549 tox-1	Nrf2 block	p53 reactivation	Nrf2 ARE act	ClpP mod	FLuc counter 3	A549 tox-2	Nrf2 ARE inh
CC1OC(OC2C=C3CCC4C(CCC5(C)C(c6ccc(=O)oc6)CCC45O)C3(C)CC2)C(O)C(OC2OC(CO)C(O)C(O)C2O)C1O (configuration not stated)	nt	?	0.073µM	nt	i	i	i	?	0.0082µM
CCN(CC)C1=NC(=[N+](CC)CC)c2ccccc21	i	?	2.1µM	i	i	i	i	i	4.6µM
Cc1ccc(NC(=O)OC(C)CNC(=O)Oc2cccc(C)c2)cc1 (configuration not stated)	i	i	i	i	i	i	nt	nt	nt
CC(=O)OC1CC2(O)C3CCC4CC(O)CCC4(C)C3CCC2(C)C1C1=CC(=O)OC1 (configuration not stated)	nt	?	0.065µM	nt	i	i	i	?	0.058µM
CC(=O)[C@H]1CCC2C3CC[C@H]4C[C@@H](O)CC[C@]4(C)C3CC[C@@]21C (some centres not stated)	nt	i	i	i	i	i	nt	nt	nt
CC(=O)OC1CC(OC2C(O)CC(OC3C(O)CC(OC4CCC5(C)C(CCC6C5CCC5(C)C(C7=CC(=O)OC7)C(O)CC65O)C4)OC3C)OC2C)OC(C)C1OC1OC(CO)C(O)C(O)C1O (configuration not stated)	nt	?	0.33µM	nt	i	i	i	?	0.29µM
COc1ccc(C2/C=C\CN(C(=O)Oc3ccc(C(F)(F)F)cc3)CC(=O)N2Cc2ccc(F)cc2)cc1 (configuration not stated)	i	?	?	i	i	i	nt	nt	nt
CC(C)c1ccc(CNC(=O)c2ccc(N3CCCC3)c(NC(=O)NCc3ccccc3)c2)cc1	i	i	nt	nt	i	?	nt	nt	nt
C=CCNc1nnc(Sc2ncccc2[N+](=O)[O-])s1	i	i	i	i	?	nt	nt	nt	nt
CC(C)COC(=O)OCN1C(=O)CN(CCN2CC(=O)N(COC(=O)OCC(C)C)C(=O)C2)CC1=O	nt	i	?	i	i	i	nt	nt	nt
COc1ccc(-c2nc(CSCC(=O)N3CCN(c4ccc(F)cc4)CC3)c(C)o2)cc1	?	i	3.3µM	nt	i	i	i	i	7.3µM
CCc1ccc(-c2nc(CSCC(=O)N3CCN(c4ccc(F)cc4)CC3)c(C)o2)cc1	i	i	7.3µM	nt	i	i	i	i	nt
Cc1ccc(C(C)C)c(OCCn2c(=O)oc3ccccc32)c1	i	i	?	i	i	i	nt	nt	nt
O=C(NN1C(=O)C2C3C=CC([C@H]4CC34)[C@@H]2C1=O)c1ccc(Br)cc1 (some centres not stated)	i	i	i	i	i	i	nt	nt	nt
[O]=[Sb]([OH])([OH])[c]1ccccc1	nt	i	i	nt	nt	i	nt	nt	nt
CC(C)(O)/C=C/C(=O)[C@](C)(O)C1[C@H](O)C[C@@]2(C)C3CC=C4C(C[C@H](O)[C@@H](O)C4(C)C)[C@]3(C)C(=O)C[C@]12C (some centres not stated)	nt	?	0.41µM	i	i	i	i	?	1.3µM
Cc1ccc(C(=O)Oc2cc(N)n(S(=O)(=O)c3ccc(F)cc3)n2)cc1	i	i	1.8µM	i	i	i	i	i	1.6µM
C[C@H]1C[C@@H](C)C(=O)[C@@H]([C@H](O)CC2CC(=O)NC(=O)C2)C1	?	?	0.41µM	i	i	i	i	i	13µM
O=C1NC2C(=CC(O)C(O)C2O)c2cc3c(c(O)c21)OCO3 (configuration not stated)	nt	?	0.26µM	nt	i	i	i	?	nt
O=C1NC2C(O)C(O)C(O)C(O)C2c2cc3c(c(O)c21)OCO3 (configuration not stated)	nt	1.2µM	0.92µM	nt	i	i	i	?	1.3µM
COc1cc(C2c3cc4c(c(O)c3CC3COC(=O)C32)OCO4)cc(OC)c1O (configuration not stated)	nt	i	?	nt	nt	i	nt	nt	nt
COC(=O)[C@]12OC[C@]34C([C@@H](O)[C@@H]1O)[C@]1(C)CC(=O)C(O)=C(C)[C@@H]1C[C@H]3OC(=O)[C@H](O)[C@@H]24 (some centres not stated)	?	?	1.3µM	i	i	i	i	?	1.5µM
COc1ccc(CNC(=O)CSCc2cnn(-c3ccccc3)c2-n2cccc2)cc1OC	?	i	9.2µM	nt	i	i	i	i	8.2µM
COC(=O)c1sc(NC(=O)/C=C/c2ccc(OC)c(OC)c2)c(C(=O)OC)c1C	i	i	?	nt	i	i	nt	nt	nt
COc1ccc(CCNC2CCCCC2)cc1	i	i	i	i	i	i	nt	nt	nt
SMILES	miR-21 reporter	A549 tox-1	Nrf2 block	p53 reactivation	Nrf2 ARE act	ClpP mod	FLuc counter 3	A549 tox-2	Nrf2 ARE inh
COc1ccc(C[C@H]2NC[C@H](O)[C@H]2OC(C)=O)cc1	nt	?	0.12µM	nt	i	i	i	i	7.3µM
COc1ccc(OCC(=O)N2CCN(Cc3cccc(OC)c3OC)CC2)cc1	i	i	i	nt	i	i	nt	nt	nt
Cc1ccc(-c2cc(-c3ccc(C)cc3)[n+](-c3ccccc3)c(-c3ccc(C)cc3)c2)cc1	nt	?	2.6µM	i	i	i	i	5.8µM	nt
CN(C)c1ccc(-[n+]2c(-c3ccccc3)cc(-c3ccccc3)cc2-c2ccccc2)cc1	?	?	2.9µM	i	i	nt	i	?	3.7µM
CCOC(=O)c1ccc(-[n+]2c(-c3ccccc3)cc(-c3ccccc3)cc2-c2ccccc2)cc1	nt	i	i	i	i	?	nt	nt	nt
CCCOP(=O)(OCCC)C(Nc1ccc(C(C)C)cc1)c1ccc([N+](=O)[O-])cc1 (configuration not stated)	i	i	?	i	i	i	nt	nt	nt
O=C(COc1ccc(S(=O)(=O)N2CCOCC2)cc1)N1CCN(Cc2ccc3c(c2)OCO3)CC1	i	i	?	i	i	i	nt	nt	nt
CCCCNS(=O)(=O)c1ccc(OCC(=O)N2CCN(Cc3ccc4c(c3)OCO4)CC2)cc1	i	?	4.6µM	i	i	i	i	i	?
CCOc1ccc(-c2c(C)n(-c3ccc(OCC)cc3)c3[n+]2CCCCC3)cc1	?	i	2.6µM	i	i	nt	i	?	1.2µM
